Measured values reported in US20230286947A1, “COMPLEMENT FACTOR B INHIBITOR, AND PHARMACEUTICAL COMPOSITION, PREPARATION METHOD AND USE THEREOF” (SHANGHAI MEIYUE BIOTECH DEVELOPMENT CO. LTD, priority 2020, published 2023).

Protein sequences, listed by entry. Tags and fused reporters are not part of them. Residues count along the entry.
UniProt P00751, 26-764 limits assumed: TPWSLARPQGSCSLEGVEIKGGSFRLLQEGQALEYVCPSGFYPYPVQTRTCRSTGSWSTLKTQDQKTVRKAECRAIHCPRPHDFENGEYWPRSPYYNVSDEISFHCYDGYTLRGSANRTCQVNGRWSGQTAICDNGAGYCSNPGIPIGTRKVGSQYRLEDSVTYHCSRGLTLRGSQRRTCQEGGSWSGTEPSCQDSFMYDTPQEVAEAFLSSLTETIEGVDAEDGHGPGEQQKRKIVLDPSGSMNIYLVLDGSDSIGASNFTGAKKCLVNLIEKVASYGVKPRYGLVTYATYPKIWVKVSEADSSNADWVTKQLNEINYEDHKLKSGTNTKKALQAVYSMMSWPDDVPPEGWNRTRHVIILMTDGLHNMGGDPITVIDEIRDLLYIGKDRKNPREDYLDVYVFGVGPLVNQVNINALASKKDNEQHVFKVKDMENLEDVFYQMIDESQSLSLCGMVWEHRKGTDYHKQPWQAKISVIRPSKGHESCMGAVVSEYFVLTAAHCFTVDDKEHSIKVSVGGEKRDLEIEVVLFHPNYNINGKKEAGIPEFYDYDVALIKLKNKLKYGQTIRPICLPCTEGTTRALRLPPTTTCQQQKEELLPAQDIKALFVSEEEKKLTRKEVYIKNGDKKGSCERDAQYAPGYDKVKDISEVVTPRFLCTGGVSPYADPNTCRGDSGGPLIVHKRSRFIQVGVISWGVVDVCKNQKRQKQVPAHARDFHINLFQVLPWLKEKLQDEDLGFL

Biological target: complement factor B in human serum (Homo sapiens, UniProt P00751)
Assay: Complement hemolytic activity assay (rabbit erythrocytes, normal human serum)
Settings: read-out: Hemolysis IC50, 37° C.

With `COc1cc(C)c2[nH]ccc2c1CN1CCC2(CCC2OC)CC1c1ccc(C(=O)O)cc1` (stereo not shown) the IC50 was 674 nM.
